PubChem BioAssay AID720582 (The Scripps Research Institute Molecular Screening Center, 2013)
Only a part is listed here, and it is no random draw. The source made the active and inactive calls.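 The calls were made as follows: active = inhibition above a per-campaign cutoff equal to the mean of compounds falling between control-based bounds plus 3 SD (cut at about 20% in these data); inactive = the rest.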

Protein sequences, listed by entry. Tags and fused reporters are not part of them. Residues count along the entry.
UniProt O14672, 214-748 limits assumed: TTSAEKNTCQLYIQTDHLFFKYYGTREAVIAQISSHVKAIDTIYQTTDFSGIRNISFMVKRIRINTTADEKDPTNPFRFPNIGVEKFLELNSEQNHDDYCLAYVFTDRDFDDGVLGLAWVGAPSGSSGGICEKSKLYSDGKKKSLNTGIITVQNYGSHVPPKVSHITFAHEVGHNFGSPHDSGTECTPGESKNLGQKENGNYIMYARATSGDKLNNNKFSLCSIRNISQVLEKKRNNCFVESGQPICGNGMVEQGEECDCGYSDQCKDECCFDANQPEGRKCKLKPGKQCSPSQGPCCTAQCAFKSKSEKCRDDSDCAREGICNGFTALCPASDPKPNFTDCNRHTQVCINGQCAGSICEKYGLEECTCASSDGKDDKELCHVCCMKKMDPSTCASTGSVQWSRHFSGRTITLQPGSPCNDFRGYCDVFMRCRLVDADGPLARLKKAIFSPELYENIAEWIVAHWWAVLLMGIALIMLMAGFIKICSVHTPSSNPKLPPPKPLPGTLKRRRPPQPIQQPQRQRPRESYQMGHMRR

molecular target: Disintegrin and metalloproteinase domain-containing protein 10 (Homo sapiens) (UniProt O14672); test: human ADAM10 inhibitors, primary screen, biochemical, QFRET, HTS (AID 720582); details: recombinant ADAM10, EDANS/DABCYL FRET peptide cleavage, 3 h; at 7 µM; hits give high values;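 also: 0% = DMSO wells while the 100% control is not disclosed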

Question: For `CP(=O)(Nc1ccccc1)Oc1ccc(F)cc1` (stereo unspecified), which inhibition is on record?
Answer: The inhibition was inactive: 2.06%.
